These results are taken from publication PMC1521118 (Environmental Health Perspectives, 1993).

Each structure is given as a SMILES string.

The data set relates to Salmonella typhimurium TA98. The following applies: without (-) S9; 100 ng/plate.

Take `Nc1c2ncn(C(c3ccccc3)c3ccccc3)c2nc[n+]1[O-]` [9-Benzhydryladenine-1-N-oxide]: the “histidine revertants/plate, TA98” value is on record as 19 +4 histidine revertants/plate.
